Test results taken from US6673332 (University of California, dated 2004).

What was measured:
[1] = molecular target: T1, GFP alone (UniProt P42212 = GFP); assay: GST pull-down in five buffer conditions (GST-KLC1 or GST on beads), Western blot for GFP
T1 construct: Control
Method: (§1) Briefly, purified GST, GST-KLC1 and GST-KLC2 bound to glutathione agarose beads were incubated with 10 μg of indicated purified fusion protein in 150 μl Buffer B (20 mM Tris-Cl, pH 7.5, 50 mM KCl, 100 mM NaCl, 2 mM CaCl_2, 2 mM MgCl_2, 5 mM DTT, 1% BSA, and protease inhibitors) for 1 hr at 4° C. For the antibody inhibition experiments, the antibody was pre-bound to the beads for 1 hr at 4° C. and then incubated for 1 hr with the indicated protein. The unbound protein (in 150 μl total volume) was saved, and the beads were washed three times with Buffer B. Bound proteins were eluted with 50 μl of elution buffer (50 mM glutathione, 50 mM Tris-Cl, pH 8.0). The bound (50 μl) and unbound (50 μl, i.e., one-third of total volume) proteins were then analyzed by SDS-PAGE followed by Western blotting.
In addition, the binding of APP-GFP or GFP alone to either GST-KLC1 or GST using four other buffers than Buffer B, namely (1) Buffer B without Ca^2+, (2) Buffer B+500 mM NaCl+1% NP-40, (3) Buffer A from sucrose gradients (10 mM HEPES, pH 7.3, 0.5 mM EGTA, 0.5 mM EGTA, 0.5 mM MgCl_2, and (4) PBS (137 mM NaCl, 2.7 mM KCl, 4.3 mM Na_2HPO_4 7 H_2O, 1.4 mM KH_2PO_4) were tested.
To test for direct interactions between the cytoplasmic C-terminal domain of APP and KLC, in vitro binding assays using GST fusion proteins were conducted. […]

[2] = molecular target: T2, APP-GFP fusion protein (C-terminal 42 amino acids of human APP fused to GFP, from a His-tagged pRSETb-EGFP … (human)); assay: GST pull-down on glutathione agarose beads, Western blot for GFP
T2 construct: Expressed in bacteria, purified on Ni-NTA-agarose; also called C-terminal tail of APP fused to GFP; APP C-terminus; not shown: His tag and leader of the pRSETb vector
Method: as §1
To test for direct interactions between the cytoplasmic C-terminal domain of APP and KLC, in vitro binding assays using GST fusion proteins were conducted. The results are shown in FIG. 5, Panel A. GST fused to full-length KLC1 (GST-KLC1) or full-length KLC2 (GST-KLC2) was incubated with a protein consisting of the C-terminal tail of APP fused to GFP (APP-GFP). APP-GFP bound to both GST-KLC1 and GST-KLC2 but not to GST alone. […]

- binding result [1]: no binding
- binding result [2]: no binding
B1: GST alone (glutathione S-transferase) (other, UniProt P08515 1-218, looked up)
chain: MSPILGYWKIKGLVQPTRLLLEYLEEKYEEHLYERDEGDKWRNKKFELGLEFPNLPYYIDGDVKLTQSMAIIRYIADKHNMLGGCPKERAEISMLEGAVLDIRYGVSRIAYSKDFETLKVDFLSKLPEMLKMFEDRLCHKTYLNGDHVTHPDFMLYDALDVVLYMDPMCLDAFPKLVCFKKRIEAIPQIDKYLKSSKYIAWPLQGWQATFGGGDHPPK
notes: Control
